The source of these data is patent US9302989B2 (priority 2010, dated 2016).

By UniProt entry, the sequences of proteins in these tests, tags left out. Where a name states a change or a piece, a line headed by the entry shows the natural chain unless it says otherwise.
UniProt P43490: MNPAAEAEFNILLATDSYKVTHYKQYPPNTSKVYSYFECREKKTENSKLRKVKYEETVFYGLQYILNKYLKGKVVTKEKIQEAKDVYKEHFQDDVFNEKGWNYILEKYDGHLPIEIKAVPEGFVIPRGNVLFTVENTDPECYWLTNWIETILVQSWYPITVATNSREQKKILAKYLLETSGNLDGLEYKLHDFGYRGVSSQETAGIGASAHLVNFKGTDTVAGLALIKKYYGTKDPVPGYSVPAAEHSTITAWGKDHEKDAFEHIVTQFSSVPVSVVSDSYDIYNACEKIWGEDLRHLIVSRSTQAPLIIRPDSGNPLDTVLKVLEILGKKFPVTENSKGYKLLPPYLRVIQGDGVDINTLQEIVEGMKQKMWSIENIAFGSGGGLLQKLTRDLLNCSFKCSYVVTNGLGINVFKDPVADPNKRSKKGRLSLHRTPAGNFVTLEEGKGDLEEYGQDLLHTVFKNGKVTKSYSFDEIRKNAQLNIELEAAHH

Molecules are shown by their SMILES.

The term IC50 denotes the point on the concentration scale where inhibition reaches its midpoint.

In this experiment the target is NAMPT (Homo sapiens (Human), UniProt P43490). The settings on record: read-out: TR-FRET Binding IC50 (μM) probe 1. (In TR-FRET formats the signal depends on donor and acceptor labels being close together.)
On to `COc1ccc(CNC(=O)c2ccc(NC(=O)N3Cc4ccccc4C3)cc2)cc1OC` [Example 10, N-{4-[(3,4-dimethoxybenzyl)carbamoyl]phenyl}-1,3-dihydro-2H-isoindole-2-carboxamide], for which the half-maximal inhibitory concentration (IC50) is 0.00525 µM.

For `O=C(CCC(=O)c1ccccc1)Nc1ccc(NC(=O)N2Cc3ccccc3C2)cc1` [Example 300, N-{4-[(4-oxo-4-phenylbutanoyl)amino]phenyl}-1,3-dihydro-2H-isoindole-2-carboxamide], the IC50 stood at 0.0103 µM.

On to `O=C(CCCc1ccccc1)Nc1ccc(NC(=O)N2Cc3ccccc3C2)cc1` [Example 293, N-{4-[(4-phenylbutanoyl)amino]phenyl}-1,3-dihydro-2H-isoindole-2-carboxamide], for which the 50% inhibitory concentration (IC50) was 0.00877 µM.

`CN(CCCc1ccccc1)C(=O)c1ccc(NC(=O)N2Cc3ccccc3C2)cc1` [Example 158, N-{4-[methyl(3-phenylpropyl)carbamoyl]phenyl}-1,3-dihydro-2H-isoindole-2-carboxamide]: the IC50 was found to be 0.0857 µM.

As to `O=C1Cc2ccccc2C(c2ccc(NC(=O)N3Cc4ccccc4C3)cc2)=NN1` [Example 386, N-[4-(4-oxo-4,5-dihydro-3H-2,3-benzodiazepin-1-yl)phenyl]-1,3-dihydro-2H-isoindole-2-carboxamide], the IC50 was 0.0707 µM.

With `COc1cc(OC)cc(C(=O)N2CCN(c3ccc(NC(=O)N4Cc5ccccc5C4)cc3)CC2)c1` [Example 523, N-{4-[4-(3,5-dimethoxybenzoyl)piperazin-1-yl]phenyl}-1,3-dihydro-2H-isoindole-2-carboxamide], the IC50 amounted to 0.187 µM.

As for `O=C(Nc1ccc2c(c1)OCCO2)c1ccc(NC(=O)N2Cc3ccccc3C2)cc1` [Example 101, N-[4-(2,3-dihydro-1,4-benzodioxin-6-ylcarbamoyl)phenyl]-1,3-dihydro-2H-isoindole-2-carboxamide], the IC50 was 0.0393 µM.

As for `O=C(NCCCOc1ccc(Cl)cc1)c1ccc(NC(=O)N2Cc3ccccc3C2)cc1` [Example 269, N-(4-{[3-(4-chlorophenoxy)propyl]carbamoyl}phenyl)-1,3-dihydro-2H-isoindole-2-carboxamide], the concentration for half-maximal inhibition (IC50) is 3.62 µM.

For `O=C(CNC(=O)c1ccccc1)Nc1ccc(NC(=O)N2Cc3ccccc3C2)cc1` [Example 301, N-{4-[(N-benzoylglycyl)amino]phenyl}-1,3-dihydro-2H-isoindole-2-carboxamide], the half-maximal inhibitory concentration (IC50) was 0.0546 µM.

Take `N#Cc1ccc(NC(=O)c2ccc(NC(=O)N3Cc4ccccc4C3)cc2)cc1` [Example 176, N-{4-[(4-cyanophenyl)carbamoyl]phenyl}-1,3-dihydro-2H-isoindole-2-carboxamide]: the IC50 was determined as 0.12 µM.

Take `O=C(NCCc1ccc(C(F)(F)F)cc1)c1ccc(NC(=O)N2Cc3ccccc3C2)cc1` [Example 237, N-[4-({2-[4-(trifluoromethyl)phenyl]ethyl}carbamoyl)phenyl]-1,3-dihydro-2H-isoindole-2-carboxamide]: the IC50 turned out to be 0.46 µM.

Take `CCCn1cc(-c2ccc(NC(=O)N3Cc4ccccc4C3)cc2)cn1` [Example 322, N-[4-(1-propyl-1H-pyrazol-4-yl)phenyl]-1,3-dihydro-2H-isoindole-2-carboxamide]: the IC50 turned out to be 0.0255 µM.

On to `O=C(Nc1cnn(-c2ccccc2)c1)c1ccc(NC(=O)N2Cc3ccccc3C2)cc1` [Example 236, N-{4-[(1-phenyl-1H-pyrazol-4-yl)carbamoyl]phenyl}-1,3-dihydro-2H-isoindole-2-carboxamide], for which the half-maximal inhibitory concentration (IC50) is 0.457 µM.

As for `O=C(NCc1ccoc1)c1ccc(NC(=O)N2Cc3ccccc3C2)cc1` [Example 83, N-{4-[(3-furylmethyl)carbamoyl]phenyl}-1,3-dihydro-2H-isoindole-2-carboxamide], the IC50 is 0.0306 µM.

Consider `COCCN(CCOC)C(=O)c1ccc(NC(=O)N2Cc3ccccc3C2)cc1` [Example 222, N-{4-[bis(2-methoxyethyl)carbamoyl]phenyl}-1,3-dihydro-2H-isoindole-2-carboxamide], for which the IC50 stood at 0.297 µM.

Take `O=C(Nc1ccc(C(=O)N2CCCC(C(F)(F)F)C2)cc1)N1Cc2ccccc2C1` (stereo not drawn) [Example 240, N-(4-{[3-(trifluoromethyl)piperidin-1-yl]carbonyl}phenyl)-1,3-dihydro-2H-isoindole-2-carboxamide]: the concentration for half-maximal inhibition (IC50) is 0.52 µM.

As for `CC(C)CCNC(=O)c1ccc(NC(=O)N2Cc3cccnc3C2)cc1` [Example 446, N-(4-{[(3-methylbutyl)amino]carbonyl}phenyl)-5,7-dihydro-6H-pyrrolo[3,4-b]pyridine-6-carboxamide], the IC50 stood at 0.011 µM.

On to `COc1ccc(NC(=O)c2ccc(NC(=O)N3Cc4ccccc4C3)cc2)cc1O` [Example 414, N-{4-[(3-hydroxy-4-methoxyphenyl)carbamoyl]phenyl}-1,3-dihydro-2H-isoindole-2-carboxamide], for which the IC50 is 0.032 µM.

Consider `CCCN(C(=O)c1ccc(NC(=O)N2Cc3ccccc3C2)cc1)C(C)C` [Example 262, N-{4-[isopropyl(propyl)carbamoyl]phenyl}-1,3-dihydro-2H-isoindole-2-carboxamide], for which the IC50 worked out at 1.66 µM.

In the case of `CC(C)(C)CCNC(=O)c1ccc(NC(=O)N2Cc3ccccc3C2)cc1` [Example 53, N-{4-[(3,3-dimethylbutyl)carbamoyl]phenyl}-1,3-dihydro-2H-isoindole-2-carboxamide], the IC50 turned out to be 0.0197 µM.

Regarding `NCc1ccc(CNC(=O)c2ccc(NC(=O)N3Cc4ccc(F)cc4C3)cc2)cc1` [Example 2, N-(4-{[4-(aminomethyl)benzyl]carbamoyl}phenyl)-5-fluoro-1,3-dihydro-2H-isoindole-2-carboxamide], the 50% inhibitory concentration (IC50) is 0.00278 µM.

On to `O=C(Nc1ccc(C(=O)N2CCN(C(=O)c3ccccc3)CC2)cc1)N1Cc2ccccc2C1` [Example 425, N-{4-[(4-benzoylpiperazin-1-yl)carbonyl]phenyl}-1,3-dihydro-2H-isoindole-2-carboxamide], for which the half-inhibitory concentration (IC50) turned out to be 0.0814 µM.

In the case of `CC(C)(C)CNC(=O)c1ccc(NC(=O)N2Cc3ccccc3C2)cc1` [Example 31, N-{4-[(2,2-dimethylpropyl)carbamoyl]phenyl}-1,3-dihydro-2H-isoindole-2-carboxamide], the IC50 was found to be 0.0149 µM.

As for `O=C(NCCc1ccc2c(c1)OCO2)c1ccc(NC(=O)N2Cc3ccccc3C2)cc1` [Example 121, N-(4-{[2-(1,3-benzodioxol-5-yl)ethyl]carbamoyl}phenyl)-1,3-dihydro-2H-isoindole-2-carboxamide], the IC50 amounted to 0.0493 µM.

As for `O=C(NCc1ccc(Cl)cc1)c1ccc(NC(=O)N2Cc3ccccc3C2)cc1` [Example 38, N-{4-[(4-chlorobenzyl)carbamoyl]phenyl}-1,3-dihydro-2H-isoindole-2-carboxamide], the IC50 worked out at 0.0164 µM.

Regarding `CCOCC(=O)N1CC=C(c2ccc(NC(=O)N3Cc4ccccc4C3)cc2)CC1` [Example 462, N-{4-[1-(ethoxyacetyl)-1,2,3,6-tetrahydropyridin-4-yl]phenyl}-1,3-dihydro-2H-isoindole-2-carboxamide], the half-maximal inhibitory concentration (IC50) was 0.00694 µM.

With `O=C(NCCCCc1ccccc1)N1Cc2ccccc2C1` [Example 354, N-(4-phenylbutyl)-1,3-dihydro-2H-isoindole-2-carboxamide], the half-inhibitory concentration (IC50) was 0.0405 µM.

For `CN(C)CCCNC(=O)c1ccc(NC(=O)N2Cc3ccccc3C2)cc1` [Example 228, N-(4-{[3-(dimethylamino)propyl]carbamoyl}phenyl)-1,3-dihydro-2H-isoindole-2-carboxamide], the half-inhibitory concentration (IC50) stood at 0.359 µM.

For `O=C(Nc1ccc(C(=O)N2CCn3cnnc3C2)cc1)N1Cc2ccccc2C1` [Example 207], the 50% inhibitory concentration (IC50) stood at 0.219 µM.

As for `C=Cc1ccc2c(c1)CN(C(=O)Nc1ccc(C(=O)NCCC)cc1)C2` [Example 424, N-[4-(propylcarbamoyl)phenyl]-5-vinyl-1,3-dihydro-2H-isoindole-2-carboxamide], the concentration for half-maximal inhibition (IC50) worked out at 0.0826 µM.

With `O=C(NC[C@@H]1CCCO1)c1ccc(NC(=O)N2Cc3ccc(F)cc3C2)cc1` [Example 435, 5-fluoro-N-[4-({[(2S)-tetrahydrofuran-2-ylmethyl]amino}carbonyl)phenyl]-1,3-dihydro-2H-isoindole-2-carboxamide], the concentration for half-maximal inhibition (IC50) amounted to 0.00589 µM.

For the molecule `NC(=O)c1ccc(NC(=O)N2Cc3ccccc3C2)cc1` [Example 250, N-(4-carbamoylphenyl)-1,3-dihydro-2H-isoindole-2-carboxamide], the half-inhibitory concentration (IC50) was found to be 0.78 µM.

With `CCCN(CC1CC1)C(=O)c1ccc(NC(=O)N2Cc3ccccc3C2)cc1` [Example 212, N-{4-[(cyclopropylmethyl)(propyl)carbamoyl]phenyl}-1,3-dihydro-2H-isoindole-2-carboxamide], the half-inhibitory concentration (IC50) was 0.252 µM.

As to `O=C(NC1CCN(Cc2ccccc2)CC1)c1ccc(NC(=O)N2Cc3ccccc3C2)cc1` [Example 164, N-{4-[(1-benzylpiperidin-4-yl)carbamoyl]phenyl}-1,3-dihydro-2H-isoindole-2-carboxamide], the IC50 came out at 0.0907 µM.

`CCCNC(=O)c1ccc(NC(=O)N2Cc3ccc(NC(=O)CN(C)C)cc3C2)cc1` [Example 279, 5-[(N,N-dimethylglycyl)amino]-N-[4-(propylcarbamoyl)phenyl]-1,3-dihydro-2H-isoindole-2-carboxamide]: the IC50 was found to be 1.91 µM.

Consider `O=C(NCc1ccsc1)c1ccc(NC(=O)N2Cc3ccccc3C2)cc1` [Example 58, N-{4-[(3-thienylmethyl)carbamoyl]phenyl}-1,3-dihydro-2H-isoindole-2-carboxamide], for which the IC50 was found to be 0.0212 µM.

Take `CC(C)CCNC(=O)CCNC(=O)N1Cc2ccccc2C1` [Example 365, N-{3-[(3-methylbutyl)amino]-3-oxopropyl}-1,3-dihydro-2H-isoindole-2-carboxamide]: the half-inhibitory concentration (IC50) worked out at 11.2 µM.

On to `O=C(CC1CC1)Nc1ccc(NC(=O)N2Cc3ccccc3C2)cc1` [Example 310, N-{4-[(cyclopropylacetyl)amino]phenyl}-1,3-dihydro-2H-isoindole-2-carboxamide], for which the IC50 was found to be 0.0368 µM.

With `CC(C)S(=O)(=O)N1CC=C(c2ccc(NC(=O)N3Cc4ccccc4C3)cc2)CC1` [Example 333, N-{4-[1-(isopropylsulfonyl)-1,2,3,6-tetrahydropyridin-4-yl]phenyl}-1,3-dihydro-2H-isoindole-2-carboxamide], the half-maximal inhibitory concentration (IC50) was 0.00315 µM.
